Settings: pig, in vivo

For Oregon Green® 488 paclitaxel [OGP], the “longitudinal extension from the injection site (mean)” value was 15 mm, the “longitudinal extension from the injection site (range)” value was 13-24 mm and the “staining after delivery into the lumen without needle deployment” value was “staining on the luminal surface only”. The “staining of the adventitia (scored 0-4+)” value was 4+.

From patent US20190160257A1, “METHODS AND SYSTEMS FOR INHIBITING VASCULAR INFLAMMATION” (Mercator MedSystems, Inc., priority 2002, published 2019)
